Experimental findings from patent publication US6500222B2, “Diureides and their use” (priority 1999, dated 2002) are described below.

Only a part of the results on these compounds is given; other tests are left out.

This data set has as its system ryegrass. Put plainly: Crop production experiment in Mitscherlich containers with ryegrass as test crop. The settings on record: for Dry-matter production / Nitrogen uptake: 2.4 g of N per container.

ammonium nitrate: for the setting “2.4 g of N per container (770 kg of N/ha), plants assessed prior to each cut”, the “Remarks (plant damage)” value is “plant damage was provoked”. In addition, the Dry-matter production reads like this: (day 16 post-fertilization) 8.7 g/container; (day 30 post-fertilization) 8.5 g/container; (day 45 post-fertilization) 11 g/container; (day 58 post-fertilization) 9.1 g/container; (day 78 post-fertilization) 7.9 g/container; (day 100 post-fertilization) 2.7 g/container. Also, the Dry-matter production reads like this: (day 125 post-fertilization) 1.8 g/container; (day 154 post-fertilization) 1 g/container; (day 174 post-fertilization) 0.3 g/container. Besides, the Nitrogen uptake by setting is: (day 16 post-fertilization) 508 mg/container; (day 30 post-fertilization) 443 mg/container; (day 45 post-fertilization) 523 mg/container; (day 58 post-fertilization) 435 mg/container; (day 78 post-fertilization) 194 mg/container; (day 100 post-fertilization) 57 mg/container. Also, the Nitrogen uptake is, setting by setting: (day 125 post-fertilization) 43 mg/container; (day 154 post-fertilization) 21 mg/container; (day 174 post-fertilization) 6 mg/container.
